Measurements from US20070105759A1 (priority 2003, published 2007).

Sequences of proteins named here, by UniProt entry; tags and fusion partners are left off.
UniProt P32245, whole entry: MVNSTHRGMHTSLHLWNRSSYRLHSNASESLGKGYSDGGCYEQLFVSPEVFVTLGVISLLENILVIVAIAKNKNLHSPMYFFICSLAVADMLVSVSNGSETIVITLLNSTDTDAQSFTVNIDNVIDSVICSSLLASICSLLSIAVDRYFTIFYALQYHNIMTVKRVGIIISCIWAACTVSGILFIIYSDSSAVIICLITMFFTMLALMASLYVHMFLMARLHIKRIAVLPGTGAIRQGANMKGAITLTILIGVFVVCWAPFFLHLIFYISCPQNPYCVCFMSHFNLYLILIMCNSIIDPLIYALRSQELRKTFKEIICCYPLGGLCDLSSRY

Biological target: MC4 (Homo sapiens, UniProt P32245)
Conditions: read-out: MC4 Ki

First: CC(=O)N[C@@H](Cc1ccc(O)cc1)C(=O)N[C@@H](CCCNC(=N)N)C(=O)N[C@H]1CSSC[C@@H](C(N)=O)NC(=O)[C@H](Cc2c[nH]c3ccccc23)NC(=O)[C@H](CCCNC(=N)N)NC(=O)[C@@H](Cc2ccccc2)NC(=O)[C@H](Cc2nc[nH]n2)NC(=O)[C@H](CCC(=O)O)NC1=O [Compound No. 106]
Second: CC(=O)N[C@@H](Cc1ccc(O)cc1)C(=O)N[C@@H](CCCNC(=N)N)C(=O)N[C@H]1CSSC[C@@H](C(N)=O)NC(=O)[C@H](Cc2c[nH]c3ccccc23)NC(=O)[C@H](CCCNC(=N)N)NC(=O)[C@@H](Cc2ccccc2)NC(=O)[C@@H](Cc2nc[nH]n2)NC(=O)[C@H](CCC(=O)O)NC1=O [Compound No. 107]
The Ki of the first is 24-fold lower: 20.9 nM for the first, 500 nM for the second.

Compared with `CC(=O)N[C@@H](Cc1ccc(O)cc1)C(=O)N[C@@H](CCCNC(=N)N)C(=O)N[C@H]1CSSC[C@@H](C(N)=O)NC(=O)[C@H](Cc2c[nH]c3ccccc23)NC(=O)[C@H](CCCNC(=N)N)NC(=O)[C@@H](Cc2ccccc2)NC(=O)[C@H](Cc2ccco2)NC(=O)[C@H](CCC(=O)O)NC1=O` [Compound No. 110, Ac-Tyr-Arg-cyclo[Cys-Glu-(β-(2-furyl)-Ala)-D-Phe-Arg-Trp-Cys]-NH2], `CC(=O)N[C@@H](Cc1ccc(O)cc1)C(=O)N[C@@H](CCCNC(=N)N)C(=O)N[C@H]1CSSC[C@@H](C(N)=O)NC(=O)[C@H](Cc2c[nH]c3ccccc23)NC(=O)[C@H](CCCNC(=N)N)NC(=O)[C@@H](Cc2ccccc2)NC(=O)[C@H](Cc2cccs2)NC(=O)[C@H](CCC(=O)O)NC1=O` [Compound No. 111, Ac-Tyr-Arg-cyclo[Cys-Glu-(β-(thien-2-yl)-Ala)-D-Phe-Arg-Trp-Cys]-NH2] is 1.8-fold lower in Ki: 117 nM for the first, 65.2 nM for the second. The second binds more tightly here.

First: CC(=O)N[C@@H](Cc1ccc(O)cc1)C(=O)N[C@@H](CCCNC(=N)N)C(=O)N[C@H]1CSSC[C@@H](C(N)=O)NC(=O)[C@H](Cc2c[nH]c3ccccc23)NC(=O)[C@H](CCCNC(=N)N)NC(=O)[C@@H](Cc2ccccc2)NC(=O)[C@H](Cc2cscn2)NC(=O)[C@H](CCC(=O)O)NC1=O [Compound No. 112, Ac-Tyr-Arg-cyclo[Cys-Glu-(β-(1,3-thiazol-4-yl)-Ala)-D-Phe-Arg-Trp-Cys]-NH2]
Second: CC(=O)N[C@@H](Cc1ccc(O)cc1)C(=O)N[C@@H](CCCCNC(=N)N)C(=O)N[C@H]1CSSC[C@@H](C(N)=O)NC(=O)[C@H](Cc2c[nH]c3ccccc23)NC(=O)[C@H](CCCNC(=N)N)NC(=O)[C@@H](Cc2ccccc2)NC(=O)[C@H](Cc2c[nH]cn2)NC(=O)[C@H](CCC(=O)O)NC1=O [Compound No. 126, Ac-Tyr-hArg-cyclo[Cys-Glu-His-D-Phe-Arg-Trp-Cys]-NH2]
The Ki of the first is 120-fold higher: 89 nM for the first, 0.74 nM for the second.

Compared with `CC(=O)N[C@@H](Cc1ccc(O)cc1)C(=O)N[C@@H](CCCNC(=N)N)C(=O)N[C@H]1CSSC[C@@H](C(N)=O)NC(=O)[C@H](Cc2c[nH]c3ccccc23)NC(=O)[C@H](CCCNC(=N)N)NC(=O)[C@@H](Cc2ccccc2)NC(=O)[C@H](Cc2ccncc2)NC(=O)[C@H](CCC(=O)O)NC1=O` [Compound No. 113, Ac-Tyr-Arg-cyclo[Cys-Glu-(β-(pyridin-4-yl)-Ala)-D-Phe-Arg-Trp-Cys]-NH2], `CC(=O)N[C@@H](Cc1ccc(O)cc1)C(=O)N[C@@H](CCCNC(N)=O)C(=O)N[C@H]1CSSC[C@@H](C(N)=O)NC(=O)[C@H](Cc2c[nH]c3ccccc23)NC(=O)[C@H](CCCNC(=N)N)NC(=O)[C@@H](Cc2ccccc2)NC(=O)[C@H](Cc2cn(C)cn2)NC(=O)[C@H](CCC(=O)O)NC1=O` [Compound No. 125, Ac-Tyr-Cit-cyclo[Cys-Glu-(1-Me-His)-D-Phe-Arg-Trp-Cys]-NH2] is 1.9-fold lower in Ki: 37 nM for the first, 19.9 nM for the second.

`CC(=O)N[C@@H](Cc1ccc(O)cc1)C(=O)N[C@@H](CCCNC(=N)N)C(=O)N[C@H]1CSSC[C@@H](C(=O)NCCO)NC(=O)[C@H](Cc2c[nH]c3ccccc23)NC(=O)[C@H](CCCNC(=N)N)NC(=O)[C@@H](Cc2ccccc2)NC(=O)[C@H](Cc2c[nH]cn2)NC(=O)[C@H](CCC(=O)O)NC1=O` [Compound No. 114, Ac-Tyr-Arg-cyclo[Cys-Glu-His-D-Phe-Arg-Trp-Cys]-glycinol] and `CC(=O)N[C@@H](Cc1ccc(O)cc1)C(=O)N[C@@H](CCCNC(=N)N)C(=O)N[C@H]1CSSC[C@@H](C(=O)NC(CO)CO)NC(=O)[C@H](Cc2c[nH]c3ccccc23)NC(=O)[C@H](CCCNC(=N)N)NC(=O)[C@@H](Cc2ccccc2)NC(=O)[C@H](Cc2c[nH]cn2)NC(=O)[C@H](CCC(=O)O)NC1=O` [Compound No. 116, Ac-Tyr-Arg-cyclo[Cys-Glu-His-D-Phe-Arg-Trp-Cys]-Ser alcohol] are within 1.5-fold of each other in Ki: 1.35 nM for the first, 2 nM for the second.

`CC(=O)N[C@@H](Cc1ccc(O)cc1)C(=O)N[C@@H](CCCNC(=N)N)C(=O)N[C@H]1CSSC[C@@H](C(=O)NCCCCCCN)NC(=O)[C@H](Cc2c[nH]c3ccccc23)NC(=O)[C@H](CCCNC(=N)N)NC(=O)[C@@H](Cc2ccccc2)NC(=O)[C@H](Cc2c[nH]cn2)NC(=O)[C@H](CCC(=O)O)NC1=O` [Compound No. 117, Ac-Tyr-Arg-cyclo[Cys-Glu-His-D-Phe-Arg-Trp-Cys]-NH-(CH2)6-NH2] and `CC(=O)N[C@@H](Cc1ccc(O)cc1)C(=O)N[C@@H](CCCCN)C(=O)N[C@H]1CSSC[C@@H](C(N)=O)NC(=O)[C@H](Cc2c[nH]c3ccccc23)NC(=O)[C@H](CCCNC(=N)N)NC(=O)[C@@H](Cc2ccccc2)NC(=O)[C@H](Cc2c[nH]cn2)NC(=O)[C@H](CCC(=O)O)NC1=O` [Compound No. 128, Ac-Tyr-Lys-cyclo[Cys-Glu-His-D-Phe-Arg-Trp-Cys]-NH2] are within 1.5-fold of each other in Ki: 0.63 nM for the first, 0.89 nM for the second.

First: CC(=O)N[C@@H](Cc1ccc(O)cc1)C(=O)N[C@@H](CCCNC(=N)N)C(=O)N[C@H]1CSSC[C@@H](C(=O)N[C@@H](CCC(=O)O)C(N)=O)NC(=O)[C@H](Cc2c[nH]c3ccccc23)NC(=O)[C@H](CCCNC(=N)N)NC(=O)[C@@H](Cc2ccccc2)NC(=O)[C@H](Cc2c[nH]cn2)NC(=O)[C@H](CCC(=O)O)NC1=O [Compound No. 118, Ac-Tyr-Arg-cyclo[Cys-Glu-His-D-Phe-Arg-Trp-Cys]-Glu-NH2]
Second: CC(=O)N[C@@H](Cc1ccc(O)cc1)C(=O)N[C@@H](CCCNC(=N)N)C(=O)N[C@H]1CSSC[C@@H](C(=O)N[C@@H](CO)C(=O)N2CCC[C@H]2CO)NC(=O)[C@H](Cc2c[nH]c3ccccc23)NC(=O)[C@H](CCCNC(=N)N)NC(=O)[C@@H](Cc2ccccc2)NC(=O)[C@H](Cc2c[nH]cn2)NC(=O)[C@H](CCC(=O)O)NC1=O [Compound No. 120, Ac-Tyr-Arg-cyclo[Cys-Glu-His-D-Phe-Arg-Trp-Cys]-Ser-Pro alcohol]
The Ki of the first is 11-fold higher: 4.59 nM for the first, 0.4 nM for the second. The second binds more tightly here.

`CC(=O)N[C@@H](Cc1ccc(O)cc1)C(=O)N[C@@H](CCCNC(=N)N)C(=O)N[C@H]1CSSC[C@@H](C(=O)N[C@@H](CCCCN)C(=O)N2CCC[C@H]2C(N)=O)NC(=O)[C@H](Cc2c[nH]c3ccccc23)NC(=O)[C@H](CCCNC(=N)N)NC(=O)[C@@H](Cc2ccccc2)NC(=O)[C@H](Cc2c[nH]cn2)NC(=O)[C@H](CCC(=O)O)NC1=O` [Compound No. 121, Ac-Tyr-Arg-cyclo[Cys-Glu-His-D-Phe-Arg-Trp-Cys]-Lys-Pro-NH2] and `CC(=O)N[C@@H](Cc1ccc(O)cc1)C(=O)N[C@@H](CCCNC(=N)N)C(=O)N[C@H]1CSSC[C@@H](C(=O)N[C@@H](CCCCN)C(=O)N2CCC[C@H]2CO)NC(=O)[C@H](Cc2c[nH]c3ccccc23)NC(=O)[C@H](CCCNC(=N)N)NC(=O)[C@@H](Cc2ccccc2)NC(=O)[C@H](Cc2c[nH]cn2)NC(=O)[C@H](CCC(=O)O)NC1=O` [Compound No. 122, Ac-Tyr-Arg-cyclo[Cys-Glu-His-D-Phe-Arg-Trp-Cys]-Lys-Pro alcohol] are within 1.5-fold of each other in Ki: 0.34 nM for the first, 0.3 nM for the second.

Going from `CC(=O)N[C@@H](Cc1ccc(O)cc1)C(=O)N[C@@H](CCCNC(=N)N)C(=O)N[C@H]1CSSC[C@@H](C(=O)N[C@@H](CCCNC(=N)N)C(=O)N[C@@H](Cc2ccccc2)C(N)=O)NC(=O)[C@H](Cc2c[nH]c3ccccc23)NC(=O)[C@H](CCCNC(=N)N)NC(=O)[C@@H](Cc2ccccc2)NC(=O)[C@H](Cc2c[nH]cn2)NC(=O)[C@H](CCC(=O)O)NC1=O` [Compound No. 123, Ac-Tyr-Arg-cyclo[Cys-Glu-His-D-Phe-Arg-Trp-Cys]-Arg-Phe-NH2] to `CC(=O)N[C@@H](Cc1ccc(O)cc1)C(=O)N[C@@H](CCCNC(=N)N)CC(=O)N[C@H]1CSSC[C@@H](C(N)=O)NC(=O)[C@H](Cc2c[nH]c3ccccc23)NC(=O)[C@H](CCCNC(=N)N)NC(=O)[C@@H](Cc2ccccc2)NC(=O)[C@H](Cc2c[nH]cn2)NC(=O)[C@H](CCC(=O)O)NC1=O` [Compound No. 127, Ac-Tyr-(1-β-hArg)-cyclo[Cys-Glu-His-D-Phe-Arg-Trp-Cys]-NH2], the Ki falls from 1.13 nM to 0.28 nM (4-fold). The second binds more tightly here.

`CC(=O)N[C@@H](Cc1ccc(O)cc1)C(=O)N[C@@H](CO)C(=O)N[C@H]1CSSC[C@@H](C(N)=O)NC(=O)[C@H](Cc2c[nH]c3ccccc23)NC(=O)[C@H](CCCNC(=N)N)NC(=O)[C@@H](Cc2ccccc2)NC(=O)[C@H](Cc2c[nH]cn2)NC(=O)[C@H](CCC(=O)O)NC1=O` [Compound No. 129, Ac-Tyr-Ser-cyclo[Cys-Glu-His-D-Phe-Arg-Trp-Cys]-NH2] and `CC(=O)N[C@@H](Cc1ccc(O)cc1)C(=O)N[C@H](C(=O)N[C@H]1CSSC[C@@H](C(N)=O)NC(=O)[C@H](Cc2c[nH]c3ccccc23)NC(=O)[C@H](CCCNC(=N)N)NC(=O)[C@@H](Cc2ccccc2)NC(=O)[C@H](Cc2c[nH]cn2)NC(=O)[C@H](CCC(=O)O)NC1=O)C(C)C` [Compound No. 130, Ac-Tyr-Val-cyclo[Cys-Glu-His-D-Phe-Arg-Trp-Cys]-NH2] are within 1.5-fold of each other in Ki: 2.18 nM for the first, 1.98 nM for the second.

Compared with `N=C(N)NCCC[C@@H]1NC(=O)[C@@H](Cc2ccccc2)NC(=O)[C@H](Cc2c[nH]cn2)NC(=O)[C@@H](N)CCSSC[C@@H](C(=O)O)NC(=O)[C@H](Cc2c[nH]c3ccccc23)NC1=O` [Compound No. 133, cyclo[hCys-His-D-Phe-Arg-Trp-Cys]-OH], `CC(=O)N[C@H]1CCSSC[C@@H](C(=O)O)NC(=O)[C@H](Cc2c[nH]c3ccccc23)NC(=O)[C@H](CCCNC(=N)N)NC(=O)[C@@H](Cc2ccccc2)NC(=O)[C@H](Cc2c[nH]cn2)NC1=O` [Compound No. 138, Ac-cyclo[hCys-His-D-Phe-Arg-Trp-Cys]-OH] is 2.9-fold lower in Ki: 9.08 nM for the first, 3.08 nM for the second.

Molecule `N=C(N)NCCC[C@@H]1NC(=O)[C@@H](Cc2ccc(Cl)cc2)NC(=O)[C@H](Cc2c[nH]cn2)NC(=O)[C@@H](N)CCSSC[C@@H](C(N)=O)NC(=O)[C@H](Cc2c[nH]c3ccccc23)NC1=O` [Compound No. 135, cyclo[hCys-His-(4-Cl-D-Phe)-Arg-Trp-Cys]-NH2] has a Ki of 0.06 nM.
